According to ChEMBL document CHEMBL1133537, “Chiral derivatives of 2-cyclohexylideneperhydro-4,7-methanoindenes, a novel class of nonsteroidal androgen receptor ligand: synthesis, X-ray analysis, and biological activity” (J Med Chem, 2000):

Molecular target: T1, Androgen receptor (Rattus norvegicus, UniProt P15207)
T1 sequence (P15207 whole entry): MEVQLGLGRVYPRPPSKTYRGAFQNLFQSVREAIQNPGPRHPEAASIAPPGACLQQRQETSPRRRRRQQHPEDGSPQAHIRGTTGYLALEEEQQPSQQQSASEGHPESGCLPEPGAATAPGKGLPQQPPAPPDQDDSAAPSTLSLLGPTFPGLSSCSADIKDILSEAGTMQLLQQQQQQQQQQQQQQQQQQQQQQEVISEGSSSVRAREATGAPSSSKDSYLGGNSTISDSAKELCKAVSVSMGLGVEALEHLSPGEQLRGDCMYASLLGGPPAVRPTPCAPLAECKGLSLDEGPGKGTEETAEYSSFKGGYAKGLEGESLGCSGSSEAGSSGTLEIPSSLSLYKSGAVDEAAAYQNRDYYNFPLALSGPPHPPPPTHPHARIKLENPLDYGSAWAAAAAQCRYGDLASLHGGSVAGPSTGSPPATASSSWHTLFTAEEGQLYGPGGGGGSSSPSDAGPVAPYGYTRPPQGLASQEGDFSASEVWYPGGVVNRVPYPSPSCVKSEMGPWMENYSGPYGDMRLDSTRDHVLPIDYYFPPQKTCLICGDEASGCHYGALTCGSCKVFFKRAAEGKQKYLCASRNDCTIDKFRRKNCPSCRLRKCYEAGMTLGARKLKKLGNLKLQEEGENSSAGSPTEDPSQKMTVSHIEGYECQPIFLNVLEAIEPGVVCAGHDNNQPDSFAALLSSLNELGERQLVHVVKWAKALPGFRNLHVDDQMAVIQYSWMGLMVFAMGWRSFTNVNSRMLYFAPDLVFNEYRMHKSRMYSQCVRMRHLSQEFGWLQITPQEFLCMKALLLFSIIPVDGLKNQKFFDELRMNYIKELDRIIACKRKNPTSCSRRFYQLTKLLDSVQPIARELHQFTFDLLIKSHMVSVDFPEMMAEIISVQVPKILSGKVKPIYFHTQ

For O=C1CCC(=C2C[C@H]3[C@@H](C2)[C@H]2C[C@@H]3[C@@H](O)C2)CC1, which IC50 is on record?
The IC50 was 2.32 µM.
